The list shows a part of the results, in another mix than the full data. Records with an inconclusive call do not appear. Activity calls are given as the source filed them. Rule for the calls: active = hit-call score of the fitted dose curve at least 0.9, where 1 is the maximum; inconclusive = response in the unintended direction; inactive = score below 0.9.
Assays:
[1] = Tanguay_ZF_120hpf_JAW_legacy: (Legacy) Oregon State University Tanguay Lab 120 Hour Post-fertilization zebrafish Assay for Jaw Malformation (AID 2283638)
How it was run: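 Binary jaw-malformation calls at 120 hpf by brightfield imaging; DMSO (0.64% v/v) = baseline. Embryos: 5D wild-type, pronase-dechorionated, one per well from 6 hpf, static exposure, 28C, sealed, dark.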

[2] = Tanguay_ZF_120hpf_PFIN_legacy: (Legacy) Oregon State University Tanguay Lab 120 Hour Post-fertilization zebrafish Assay for Pectoral Fin Malformation (AID 2283648);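 note: each larva judged yes or no for fin defect by brightfield with dead larvae skipped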
How it was run: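 Pectoral fin malformation was recorded as a binary endpoint at 120 hpf in wild-type Tropical 5D larvae, which had been dechorionated and exposed statically from 6 hpf at 28C in 0.64% DMSO. Dead embryos were excluded.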

[3] = read-out: ABC Transporter (ABCB1), ABCB1 (gene 5243); test: CLD_ABCB1_6hr: CellzDirect (CLD) Gene Expression Assay for ABC Transporter (ABCB1) at 6 hours (AID 2283659);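 note: hits raise ABCB1 transcript above the DMSO vehicle baseline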
How it was run: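 ABCB1 transcript measured by quantitative nuclease protection assay, chemiluminescent read-out, 6 h after dosing human hepatocyte cultures (0.2% DMSO vehicle, daily redosing). Activity fitted as increase over DMSO baseline; cytotoxicity flagged by phase-contrast morphology.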

[4] = Tanguay_ZF_120hpf_BRAI_legacy: (Legacy) Oregon State University Tanguay Lab 120 Hour Post-fertilization zebrafish Assay for Brain Malformation (AID 2283641)
How it was run: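 Read-out: binary brain morphology call at 120 hpf (brightfield), fitted in gain-of-signal direction vs DMSO. Wild-type Tropical 5D embryos, static exposure, 28C, 0.64% DMSO final; 5uM trimethyltin chloride as positive control.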

[5] = Tanguay_ZF_120hpf_PIG_legacy: (Legacy) Oregon State University Tanguay Lab 120 Hour Post-fertilization zebrafish Assay for Pigmentation Malformation (AID 2283650)
How it was run: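 Pigment malformation recorded as a binary call at 120 hpf in zebrafish (Tropical 5D) exposed singly from 6 hpf after pronase dechorionation. Static, sealed, 28C exposure, 0.64% DMSO; mortality excludes scoring; positive-direction fit against DMSO.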

[6] = Tanguay_ZF_120hpf_CIRC_legacy: (Legacy) Oregon State University Tanguay Lab 120 Hour Post-fertilization zebrafish Assay for Circulatory Malformation (AID 2283651)
How it was run: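 Binary circulatory-malformation call at 120 hpf via brightfield imaging, relative to DMSO controls. Embryos (5D strain, chorion removed) received static, light-shielded exposure at 28C.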

Measured: outcome

O=C1C2CC=CCC2C(=O)N1SC(Cl)(Cl)C(Cl)Cl (configuration not stated)
inactive: [1] | [2] | [3]

CN(C(=O)Cc1cccc2occc12)[C@H]1CC[C@@]2(CCCO2)C[C@@H]1N1CCCC1
inactive: [1] | [4] | [2] | [5]

CC(C)OP(=S)(OC(C)C)SCCNS(=O)(=O)c1ccccc1
inactive: [4] | [6] | [3]

Cc1cc([N+](=O)[O-])cc([N+](=O)[O-])c1O
inactive: [5] | [6]

From PubChem BioAssay (EPA / NIEHS)
